Patent US20170087562A1, “METHOD FOR DETERMINING TREATMENT RESPONSE OF CELLS” (NATIONAL CHENG KUNG UNIVERSITY, priority 2015, published 2017)

How the values were obtained:
Test in all cases: Electrorotation speed of cells before and after EGFR TKI treatment
Format in all cases: cell-based
H1975 cells = conditions: H1975, drug resistant (acquired); before (0 hr) vs after (6 hrs)
AS2 cells = conditions: AS2, drug resistant, without EGFR mutation; before (0 hr) vs after (6 hrs)
HCC827 cells = conditions: 6 hours treatment

COc1cc2ncnc(Nc3ccc(F)c(Cl)c3)c2cc1OCCCN1CCOCC1 [EGFR TKI]
difference of electrorotation speeds before and after treatment (H1975 cells): no significant difference | difference of electrorotation speeds before and after treatment (AS2 cells): no significant difference | electrorotation speeds after treatment versus before treatment (HCC827 cells; HCC827, sensitive, with EGFR mutation): slower | cell death at the time point of electrorotation (HCC827 cells; HCC827): do not present significant cell death
